The entries are a selection whose mix differs from that of the whole data set. Inconclusive results are not listed. Activity calls are given as the source filed them. Calls come from the whole dose curve; as a rule, active = well fitted activation curve with a large enough effect; inconclusive = small, poorly fitted or top-dose-only effect; inactive = no such curve, though single readings can be large or run the other way.
experiment: qHTS Assay for Agonists of the Thyroid Stimulating Hormone Receptor: Activators of Intracellular cAMP Concentrations in Parental HEK 293; settings: parental HEK293 CNG cAMP sensor, membrane potential fluorescence; series mostly up to 57.1 µM; activation: at the top concentration; note: nearly all actives have a fitted effect of over 55% in size; for activation: % of control where 0% means no effect
Excerpt: NIH Chemical Genomics Center [NCGC]
NIH Molecular Libraries Screening Centers Network [MLSCN]
PI Name: Dr. Marvin Gershengorn
This cell based assay utilized a cyclic nucleotide gated ion channel (CNG) as a biosensor for cAMP induction. HEK 293 cells stably expressing the modified CNG were purchased from BD biosciences (http://www.atto.com/products/actone/features_benefits.shtml) . Stimulation of cAMP production causes the CNG to open and subsequent membrane depolarization to occur. A fluorescent membrane potential dye (BD biosciences) was utilized to detect cAMP stimulation in cells.
The cells were maintained in DMEM medium (Invitrogen) containing 10 % FBS (Hyclone), 100 units/ml Penicillin, 100 ug/ml Streptomycin (Invitrogen), and 250 ug/ml Geneticin (Invitrogen) and 1 ug/ml Puromycin (Invitrogen) at 37C in 5% CO2. This assay was used as a counterscreen to "qHTS Assay for Agonists of the Thyroid Stimulating Hormone Receptor", to control for compounds signaling through endogenous receptors and other targets of HEK 293 cells.
NCGC Assay Protocol Summary:
High Throughput Screening. Freshly passaged cells were dispensed into 1536-well assay plates at 4 ul/well in DMEM containing phenol red (Invitrogen), 10% FCS (Hyclone), and 100 units/ml Penicillin, 100 ug/ml Streptomycin (Invitrogen) and incubated at 37 C with 5% CO2 for 20 to 36 hrs before the robotic screening. The screen was initiated by addition of 4 ul/well membrane potential dye containing 100 uM RO 20-1724 (Sigma Aldrich), followed by 60 min incubation at room temperature to allow for dye equilibration across the cell membrane. 23 nl/well compound or control was then added to the assay plates, which were incubated for additional 30 min before reading a Envision fluorescence plate reader (Perkin Elmer) in bottom-read mode for fluorescence intensity (emission at 590 nm).
Keywords: cAMP, CNG Ion Channel, quantitative high throughput screening, qHTS, HTS, probe identification, CNG, cAMP, cyclic nucleotide gated ion channel PubChem
Potency is the fitted concentration of half-maximal effect.

Structure (SMILES)	activation	Potency
CCn1nc(C(=O)O)c(=O)c2cc3c(cc21)OCO3	inactive: 13.9%	–
CC(=O)O[C@H]1C[C@@]2(C)[C@H](C[C@@H](O)[C@H]3[C@@]4(C)CC[C@@H](O)[C@@H](C)[C@H]4CC[C@@]32C)C1=C(CCC=C(C)C)C(=O)O	inactive: 3.61% [at 25.6 µM]	–
COCCn1c(SCc2nc3sc(C(=O)OC)c(C)c3c(=O)[nH]2)nc2ccccc21	–	active: 25.1 µM
